Assay results taken from patent US10408813B2, “Biosensor for detecting intracellular cyclic adenosine monophosphate (cAMP) and uses thereof” (Academia Sinica, priority 2015, dated 2019).

Chains of the proteins cited; added tags and fusions are not shown. Residues count along the entry.
UniProt P32301, 22-463: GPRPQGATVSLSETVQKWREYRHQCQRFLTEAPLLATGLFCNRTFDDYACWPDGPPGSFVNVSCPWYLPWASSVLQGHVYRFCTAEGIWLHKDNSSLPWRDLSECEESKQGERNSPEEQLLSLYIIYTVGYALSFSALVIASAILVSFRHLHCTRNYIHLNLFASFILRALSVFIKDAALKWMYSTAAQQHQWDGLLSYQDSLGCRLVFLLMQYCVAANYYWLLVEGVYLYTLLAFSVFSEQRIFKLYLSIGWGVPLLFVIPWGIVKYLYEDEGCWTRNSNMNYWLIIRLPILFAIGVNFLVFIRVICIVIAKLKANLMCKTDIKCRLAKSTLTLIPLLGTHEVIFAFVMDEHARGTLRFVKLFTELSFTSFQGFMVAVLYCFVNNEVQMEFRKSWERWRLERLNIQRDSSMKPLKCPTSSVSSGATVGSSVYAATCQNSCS

Target: GLP-1R (UniProt P01275+P32301)
Assay: BRET cAMP response assay in RINm5F cells, GLP-1R-mediated cAMP production
Format: cell-based, rat

## His-tagged GLP-1 (7-36): SEQ ID NO: 6, six consecutive histidine residues tagged to the C-terminal of GLP-1 (7-36) peptide (HAEGTFTSDVSSYLEGQAAKEFIAWLVKGRHHHHHH; His-tagged GLP-1 (7-36)) [reference compound]
  response to OEA and stimulation of cAMP response compared with GLP-1 (7-36) amide: comparable response
